# Results as given in patent publication US20050215634A1 (priority 2003, published 2005).
structure (smiles),measurement,setting,value
"CCCCCCCCCCCC(=O)OCC(O)CO (centres unmarked) [GML, glycerol monolaurate]",GML concentration up to which S. aureus MN8 grew,S. aureus MN8,up to 100 μg/ml
same,GML concentration up to which N. gonorrhoeae grew,N. gonorrhoeae,up to 50 μg/ml
